This assay has as its target T1, BLyS82-285 (human BAFF residues 82-285) (human, UniProt Q9Y275 82-285).
T1 construct: Made in E. coli from pET15b with an N-terminal His-tag, which thrombin removed; Coated on ELISA plates and, in the phage IC50 assay, also used in solution; also called TALL-1
The assay can be described thus: competitive displacement ELISA on BLyS-coated plates; competitor biotinylated miniBR3; four-parameter fit.

Amino acid sequences for entries named in this document (tags omitted). Residues count along the entry.
UniProt Q9Y275, 82-285: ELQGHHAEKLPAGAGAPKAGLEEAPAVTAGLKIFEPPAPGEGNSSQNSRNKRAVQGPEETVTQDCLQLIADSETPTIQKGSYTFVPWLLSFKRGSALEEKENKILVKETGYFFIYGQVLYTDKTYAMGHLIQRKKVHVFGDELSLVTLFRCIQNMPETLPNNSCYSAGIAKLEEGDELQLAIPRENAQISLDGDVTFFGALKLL

As to ECFDLLVRHWVPCGLLK [blys0095 (ECFDLLVRHWVPCGLLK)], the IC50 amounted to 19 nM.

By IC50 is commonly meant the concentration that gives 50% inhibition. Higher therefore signals weaker potency in that assay.

The values are drawn from US20100143352A1 (published 2010).
